We go through one compound from US9404916B2, “Use of a protein kinase inhibitor to detect immune cells, such as T cells” (University College Cardiff Consultants Limited, priority 2008, dated 2016).

For this assay, the system named is PPI15-24-specific autoreactive CTL.

`Cc1nc(Nc2ncc(C(=O)Nc3c(C)cccc3Cl)s2)cc(N2CCN(CCO)CC2)n1` [dasatinib, N-(2-chloro-6-methyl-phenyl)-2-(6-(4-(2-hydroxyethyl)-piperazin-1-yl)-2-methylpyrimidin-4-ylamino)thiazole-5-carboxamide]: the “increase in the percentage of autoreactive CTL” value was “seven-fold”. The “direct ex vivo HLA A2/PPI15-24 tetramer staining in healthy control subjects” value (healthy HLA A2-matched control subjects) is given as “did not increase”.
